From patent US20150073008A1, “Topical Application of Vinca Alkaloids for the Treatment of Actinic Keratosis” (Merz Pharma GmbH & Co. KGaA, priority 2013, published 2015) come the findings set out here.

The data set is described as follows: Dermal absorption study with human skin (Franz diffusion cells, 3H-API). To be noted: different concentrations and formulations (cream, liposomes, hydro-tops).

Vinblastine sulfate hydrate: the “dermal absorption (in words)” value is “good dermal absorption”.
